According to the RepoRT retention time repository (doi:10.1016/j.chroma.2014.05.003):

Test: RP, Agilent ZORBAX Eclipse Plus C18, 50 × 4.6 mm, 1.8 µm, 0.5 mL/min, estimated dead time 1.1 min; A: water + 0.1% formic acid; B: acetonitrile + 0.1% formic acid; gradient (min/%B) 0/10 3/10 25/100 28/100
Conditions: stereoisomer not certain

## CCOP(=S)(OCC)Oc1ncn(-c2ccccc2)n1
  LC retention time: 17.1 min
